Among the data in PubChem BioAssay AID1347404 (Pan Lab, Icahn School of Medicine at Mount Sinai, 2020) are inhibition values, retold here.

The chains behind the UniProt entries cited, without tags or fusion partners.
UniProt P62877, whole entry, looked up: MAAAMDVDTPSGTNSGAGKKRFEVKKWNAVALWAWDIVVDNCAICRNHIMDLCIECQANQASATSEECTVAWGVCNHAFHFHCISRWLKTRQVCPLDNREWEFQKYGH
UniProt Q13616, whole entry, looked up: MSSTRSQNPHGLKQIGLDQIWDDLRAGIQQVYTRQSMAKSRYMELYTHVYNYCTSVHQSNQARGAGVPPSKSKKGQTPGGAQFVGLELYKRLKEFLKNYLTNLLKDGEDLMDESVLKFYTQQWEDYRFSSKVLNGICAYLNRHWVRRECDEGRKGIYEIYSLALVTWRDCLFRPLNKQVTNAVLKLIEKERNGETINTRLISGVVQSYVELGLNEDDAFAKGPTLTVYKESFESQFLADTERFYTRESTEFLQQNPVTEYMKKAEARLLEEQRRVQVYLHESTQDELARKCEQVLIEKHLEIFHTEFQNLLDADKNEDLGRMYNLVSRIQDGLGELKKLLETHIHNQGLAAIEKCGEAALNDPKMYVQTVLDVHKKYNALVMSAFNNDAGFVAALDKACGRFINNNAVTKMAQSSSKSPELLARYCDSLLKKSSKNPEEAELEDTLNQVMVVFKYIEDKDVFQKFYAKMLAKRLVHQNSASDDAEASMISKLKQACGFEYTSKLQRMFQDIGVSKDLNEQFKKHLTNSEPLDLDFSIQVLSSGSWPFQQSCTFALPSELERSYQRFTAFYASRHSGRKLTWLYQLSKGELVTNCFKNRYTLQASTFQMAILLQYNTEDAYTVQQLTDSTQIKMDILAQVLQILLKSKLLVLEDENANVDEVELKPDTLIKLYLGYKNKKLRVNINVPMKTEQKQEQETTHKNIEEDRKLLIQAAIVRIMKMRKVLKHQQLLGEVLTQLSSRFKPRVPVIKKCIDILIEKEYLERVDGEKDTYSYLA

In general, inhibition refers to the drop in the measured response relative to a control, in per cent.

Only a part is listed here, and it is no random draw. Calls of active or inactive are those of the source. Cut-off read from the data, not from the text of the source: active = inhibition above about 25%; inactive = the rest.

This experiment deals with E3 ubiquitin-protein ligase RBX1 (Homo sapiens) + Cullin-1 (Homo sapiens) (UniProt P62877+Q13616). Briefly: blocks human RBX1-Cullin-1 di-ubiquitin formation (AID 1347404). The settings on record: in vitro K48 di-Ub FRET, acceptor:donor ratio, 45 min; at 10 µM; hits give high values.
Consider `CCN(CCCl)Cc1csc2ccc(I)cc12`, for which the inhibition was inactive: -3.82%. Under `O=C(OC1CN2CCC1CC2)c1cccc2[nH]cnc12` (stereo not given) stands inactive: 6.42%; under `O=[N+]([O-])c1cc([N+](=O)[O-])c(-c2ccn[nH]2)s1`, inactive: -3.21%; under `O=C(NC(Sc1ccc(Cl)cc1)C(Cl)(Cl)Cl)c1ccccc1` (stereo not given), inactive: 4.06%. For the compound `O=[N+]([O-])c1cc([N+](=O)[O-])c(Nc2ccccc2)c([N+](=O)[O-])n1`, the inhibition was inactive: -6.02%. `COc1ccc2nc(NP(=O)(c3ccccc3)c3ccccc3)sc2c1`: the inhibition is inactive: 9.04%. For the compound `Cc1ccccc1C(=O)NC(Sc1ccccc1)C(Cl)(Cl)Cl` (stereo not given), the inhibition is inactive: -7.59%. `Cc1nc2c(C)cccc2c2c1CC(C(Cl)Cl)S2` (stereo not given): the inhibition was inactive: 9.64%. In the case of `O=C(Nc1ccc([N+](=O)[O-])cc1[N+](=O)[O-])c1ccc([N+](=O)[O-])cc1[N+](=O)[O-]`, the inhibition was inactive: 11.9%. For `COc1ccc(C(=O)OC2CN3CCC2CC3)cc1OC` (stereo not given), the inhibition is inactive: 0.289%. Under `CCOc1ccc(C(=O)OC2CN3CCC2CC3)cc1` (stereo not given) stands inactive: 16.5%; under `Cc1ccc2c(c1)n1nnnc1c1nnnn21`, inactive: 4.68%.

With `N#CCN(N=Nc1nonc1N)c1nonc1N`, the inhibition is inactive: 1.45%. With `O=[N+]([O-])c1cc([N+](=O)[O-])c(-c2[nH]ncc2[N+](=O)[O-])s1`, the inhibition was inactive: 12.8%.

On to `Cc1nn2c(c1[N+](=O)[O-])n1nc(C)c([N+](=O)[O-])c1n1nc(C)c([N+](=O)[O-])c21`, for which the inhibition was inactive: 2.84%. With `ClC1(Cl)SC12C1CC3CC(C1)CC2C3` (stereo not given), the inhibition was inactive: -6%. In the case of `COC(=O)C12C3C4CC5(SCCS5)C5(Br)C3C1C5C42` (stereo not given), the inhibition is inactive: -1.25%. `COC(=O)[C@@H]1CSC(C(Cl)(Cl)Cl)N1C(C)=O` (stereo not given in full): the inhibition is inactive: -1.23%. `N=C1N=CN(CC(O)CO)C2N=C(N3CCOCC3)NC12` (stereo not given): the inhibition was inactive: 6.83%. For `n1[nH]nc2c1c1n[nH]nc1c1n[nH]nc21`, the inhibition is inactive: 7.08%. `CCC1=CC2Cc3nc4ccc(Cl)cc4c(N)c3C(C1)C2` (stereo not given): the inhibition is inactive: -0.179%.

For the compound `COc1ccc(/C=C/C(=O)OC2CN3CCC2CC3)cc1` (stereo not given), the inhibition was inactive: -3.36%. Regarding `CN(CCCl)Cc1cc2cc(I)ccc2s1`, the inhibition is inactive: 5.29%.

`COc1cc(-n2cnnn2)ccc1-n1cnnn1`: the inhibition was inactive: 5.79%.

For `O=C(NC(SC1=NCCS1)C(Cl)(Cl)Cl)c1cccc(I)c1` (stereo not given), the inhibition is inactive: 1.65%. Regarding `CN=c1cc(C)on1P(=S)(Oc1ccccc1)Oc1ccccc1`, the inhibition was inactive: -0.707%.

Take `COc1cc(C2NCCC3(OCCO3)C2(C)C)cc(OC)c1OC` (stereo not given): the inhibition was inactive: 7.75%. On to `N#CC1(OC(=O)c2ccccc2)CN2CCC1CC2` (stereo not given), for which the inhibition was inactive: 4.51%. As to `COc1ccccc1C(=O)NC(Sc1ccccc1)C(Cl)(Cl)Cl` (stereo not given), the inhibition was inactive: 3.62%. As for `CN(C)C(=O)c1cc([N+](=O)[O-])cc2c1-c1c(cc([N+](=O)[O-])cc1[N+](=O)[O-])C2=O`, the inhibition is inactive: -4.98%. Consider `CNc1c(C(=O)Nc2ccc([N+](=O)[O-])cc2)cc([N+](=O)[O-])cc1[N+](=O)[O-]`, for which the inhibition was inactive: 0.029%.

`Cc1ccc2nc(C)c3c(c2c1)SC(C(Cl)Cl)C3` (stereo not given): the inhibition is inactive: 5.88%. For the compound `O=[N+]([O-])c1ccc(CCc2ccc([N+](=O)[O-])cc2[N+](=O)[O-])c([N+](=O)[O-])c1`, the inhibition was inactive: -11.7%. On to `CC(=O)O[C@H]1CN2CCC1[C@@H](c1ccccc1)C2` (stereo not given in full), for which the inhibition was inactive: 3.44%.

Consider `CCC(=O)N1C2C3N(C(=O)CC)C1C1N(C(=O)CC)C(C(N1C(=O)CC)N3C(=O)CC)N2C(=O)CC`, for which the inhibition was inactive: 1.15%. In the case of `CCOC(=O)OC1CN2CCC1CC2` (stereo not given), the inhibition is inactive: -0.357%. The same measure for `O=[N+]([O-])c1ccc(NSc2ccc([N+](=O)[O-])cc2[N+](=O)[O-])c([N+](=O)[O-])c1`: inactive: -2.38%; for `Clc1ccc2c(c1)n1nnnc1c1nnnn21`: inactive: -2.99%; for `Cc1ccc(SC(NC(=O)c2ccc(C)cc2)C(Cl)(Cl)Cl)cc1` (stereo not given): inactive: 3.51%. The same measure for `CCCCN(CCCl)Cc1csc2ccc(Br)cc12`: inactive: -6.74%. As for `CN(C)C(=O)Oc1cccn2cc(-c3ccccc3)nc12`, the inhibition is inactive: -3.2%. Consider `COC(=O)c1cc([N+](=O)[O-])cc2c1-c1c(cc([N+](=O)[O-])cc1[N+](=O)[O-])C2=O`, for which the inhibition was inactive: -6.43%.

As for `Cc1nc2ccccc2c2c1CC(C(Cl)Cl)S2` (stereo not given), the inhibition is inactive: 6.96%.

In the case of `C(Cc1nn[nH]n1)Cc1nn[nH]n1`, the inhibition is inactive: -3.5%.

In the case of `CN(C)C(=O)Oc1ccc2n(C)c(-c3ccccc3)c[n+]2c1`, the inhibition is inactive: -8.57%.

In the case of `COc1cccc2c3c(c(C)nc12)CC(C(Cl)Cl)S3` (stereo not given), the inhibition is inactive: 5.55%. With `CC(=O)N1C2C3N(C(C)=O)C1C1N(C(C)=O)C(C(N1C(C)=O)N3C(C)=O)N2C(C)=O`, the inhibition is inactive: 0.129%. Consider `Cc1c([N+](=O)[O-])cc(C(=O)Nc2ccc([N+](=O)[O-])cc2)cc1[N+](=O)[O-]`, for which the inhibition was inactive: 1.9%. Consider `O=[N+]([O-])c1ccc(OCC(O)COc2ccc([N+](=O)[O-])cc2[N+](=O)[O-])c([N+](=O)[O-])c1`, for which the inhibition is inactive: -8.99%. Consider `COc1ccc(CC(c2ccc(C)cc2)N2CCN(CCO)CC2)cc1OC` (stereo not given), for which the inhibition is inactive: 4.94%.

Regarding `CN(C)C(=O)OCCc1n(C)cc[n+]1C`, the inhibition was inactive: 1.94%. With `O=C(NC(Sc1ccccc1)C(Cl)(Cl)Cl)c1cccc(Cl)c1` (stereo not given), the inhibition was inactive: -2.76%. `COc1ccc(C(=O)NC(Sc2ccccc2)C(Cl)(Cl)Cl)cc1` (stereo not given): the inhibition was inactive: 6.87%. Regarding `O=P(Nc1ccccn1)(Oc1ccccc1Cl)Oc1ccccc1Cl`, the inhibition is inactive: 1.7%. For `CN(C)C(=O)Oc1cccc(-c2c[n+]3cc(OC(=O)N(C)C)ccc3n2C)c1`, the inhibition was inactive: -1.24%.
